Data from US12331032B2, “Quinone reductase 2 inhibitor compounds and uses thereof” (DUKE UNIVERSITY, priority 2018, dated 2025).

By UniProt entry, the sequences of proteins in these tests, tags left out. Where a name states a change or a piece, a line headed by the entry shows the natural chain unless it says otherwise.
UniProt Q12809: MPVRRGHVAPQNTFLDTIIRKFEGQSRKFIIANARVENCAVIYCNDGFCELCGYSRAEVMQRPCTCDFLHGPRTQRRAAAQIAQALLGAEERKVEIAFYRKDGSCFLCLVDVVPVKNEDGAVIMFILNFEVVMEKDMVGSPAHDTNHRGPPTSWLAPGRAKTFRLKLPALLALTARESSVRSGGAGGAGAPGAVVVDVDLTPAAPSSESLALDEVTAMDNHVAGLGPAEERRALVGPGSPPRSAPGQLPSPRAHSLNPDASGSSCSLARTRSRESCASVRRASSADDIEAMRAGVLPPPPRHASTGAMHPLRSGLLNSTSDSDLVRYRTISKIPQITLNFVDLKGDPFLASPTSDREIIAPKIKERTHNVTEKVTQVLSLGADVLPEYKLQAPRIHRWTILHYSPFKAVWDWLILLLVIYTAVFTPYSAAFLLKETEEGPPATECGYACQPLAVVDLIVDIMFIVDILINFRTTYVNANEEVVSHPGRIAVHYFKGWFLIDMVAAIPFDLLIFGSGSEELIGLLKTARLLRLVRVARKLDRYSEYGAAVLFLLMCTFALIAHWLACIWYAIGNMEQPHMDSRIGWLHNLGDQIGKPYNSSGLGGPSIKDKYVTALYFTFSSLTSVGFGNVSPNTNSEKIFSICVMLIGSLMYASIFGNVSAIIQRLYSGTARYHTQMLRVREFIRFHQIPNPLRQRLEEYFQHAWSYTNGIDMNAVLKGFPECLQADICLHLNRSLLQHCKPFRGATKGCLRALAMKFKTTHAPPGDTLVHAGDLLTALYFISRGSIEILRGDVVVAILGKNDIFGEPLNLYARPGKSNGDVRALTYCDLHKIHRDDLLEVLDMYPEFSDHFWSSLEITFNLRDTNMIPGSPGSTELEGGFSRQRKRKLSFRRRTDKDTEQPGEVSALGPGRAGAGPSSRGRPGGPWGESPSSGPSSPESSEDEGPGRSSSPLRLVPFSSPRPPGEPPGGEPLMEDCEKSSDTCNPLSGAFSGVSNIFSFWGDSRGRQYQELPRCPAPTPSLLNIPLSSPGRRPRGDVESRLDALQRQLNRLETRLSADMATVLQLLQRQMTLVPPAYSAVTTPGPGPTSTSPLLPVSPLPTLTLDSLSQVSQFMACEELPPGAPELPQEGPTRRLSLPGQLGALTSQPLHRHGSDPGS
UniProt P08183, whole entry: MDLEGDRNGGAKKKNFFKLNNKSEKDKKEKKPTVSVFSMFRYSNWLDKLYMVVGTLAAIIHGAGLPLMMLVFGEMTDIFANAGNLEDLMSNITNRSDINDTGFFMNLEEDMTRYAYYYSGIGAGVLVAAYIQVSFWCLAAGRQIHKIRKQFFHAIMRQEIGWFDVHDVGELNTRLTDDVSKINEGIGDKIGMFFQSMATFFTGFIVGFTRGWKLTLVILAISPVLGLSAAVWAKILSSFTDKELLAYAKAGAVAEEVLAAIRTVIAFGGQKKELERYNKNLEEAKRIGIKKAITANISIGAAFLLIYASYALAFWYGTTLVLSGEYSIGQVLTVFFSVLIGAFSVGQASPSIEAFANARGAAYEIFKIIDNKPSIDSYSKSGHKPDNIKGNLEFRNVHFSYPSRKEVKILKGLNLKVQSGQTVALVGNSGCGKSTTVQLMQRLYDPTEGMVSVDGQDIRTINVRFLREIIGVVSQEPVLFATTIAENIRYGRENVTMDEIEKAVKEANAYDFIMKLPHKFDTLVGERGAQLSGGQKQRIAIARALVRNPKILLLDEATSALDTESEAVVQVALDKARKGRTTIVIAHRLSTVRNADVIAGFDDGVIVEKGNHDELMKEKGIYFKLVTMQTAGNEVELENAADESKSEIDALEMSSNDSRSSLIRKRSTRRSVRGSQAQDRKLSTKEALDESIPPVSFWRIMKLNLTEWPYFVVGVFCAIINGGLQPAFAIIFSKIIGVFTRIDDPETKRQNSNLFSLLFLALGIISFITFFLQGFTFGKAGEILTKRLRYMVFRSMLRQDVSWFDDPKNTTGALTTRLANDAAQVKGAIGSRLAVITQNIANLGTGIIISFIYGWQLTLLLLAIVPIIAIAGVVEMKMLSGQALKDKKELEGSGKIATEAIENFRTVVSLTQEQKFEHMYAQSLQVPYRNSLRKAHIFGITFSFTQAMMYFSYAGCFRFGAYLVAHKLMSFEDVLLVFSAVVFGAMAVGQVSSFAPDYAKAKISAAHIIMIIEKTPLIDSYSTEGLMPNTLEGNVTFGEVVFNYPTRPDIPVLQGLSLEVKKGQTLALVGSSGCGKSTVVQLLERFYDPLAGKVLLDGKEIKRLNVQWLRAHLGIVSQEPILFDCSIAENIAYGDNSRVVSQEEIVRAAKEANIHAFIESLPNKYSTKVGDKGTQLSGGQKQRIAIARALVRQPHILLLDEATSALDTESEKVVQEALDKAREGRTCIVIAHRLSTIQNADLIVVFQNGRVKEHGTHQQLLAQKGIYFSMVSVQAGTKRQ

Columns and labels:
mouse hepatocyte = mouse hepatocyte stability; settings: mouse hepatocytes, at 1 hour
human hepatocyte = human hepatocyte stability; settings: human hepatocytes, at 1 hour
hERG ion channel = hERG ion channel (Homo sapiens, UniProt Q12809); assay: hERG ion channel inhibition
P-glycoprotein = P-glycoprotein (Homo sapiens, UniProt P08183); settings: not told
[1] = mouse plasma protein binding by ultracentrifugation
[2] = human plasma protein binding by ultracentrifugation

**Q.** With “7-methoxy-4-(pyridin-3-yl) methylaminoquinoline [QR2I-44]” as the substance, how does the mutagenicity (modified Ames assay) read?
**A.** The mutagenicity was “not mutagenic”.

**Q.** And the “hepatocyte stability, remaining” value (mouse hepatocyte)?
**A.** Its value is over 90%.

**Q.** And the “hepatocyte stability, remaining” value (human hepatocyte)?
**A.** The value was over 90%.

**Q.** What about the IC50 (hERG ion channel) of the same substance?
**A.** Its IC50 is over 10 µM.

**Q.** What about the “P-glycoprotein substrate or inhibitor” value (P-glycoprotein) of the same substance?
**A.** Its value is “not a P-glycoprotein substrate or inhibitor”.

**Q.** And the “plasma protein binding, bound” value [1]?
**A.** Its value is 50-70%.

**Q.** What about the “plasma protein binding, bound” value [2] of the same substance?
**A.** The value was 50-70%.
